The results in this text go back to publication PMC8667020.

The target in this assay is T1, ASC^F136A (ASC-YFP mutant; F163A in the methods), Q9ULZ3.
T1 chain: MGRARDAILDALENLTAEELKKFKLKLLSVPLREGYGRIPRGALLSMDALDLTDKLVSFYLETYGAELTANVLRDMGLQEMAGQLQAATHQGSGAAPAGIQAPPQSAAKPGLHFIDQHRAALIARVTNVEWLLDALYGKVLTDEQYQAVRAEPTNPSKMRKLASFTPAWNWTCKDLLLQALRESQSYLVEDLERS
The assay is described as follows: flow cytometry of ASC-YFP speck formation in transfected HEK293 cells. As to conditions: chain shown with the change, parent: est. 37, read off a plot.

B1: ASC-YFP, Q9ULZ3 F136A (protein)
chain: T1 chain
Take B1: the other: ASC specks (%) worked out at 19%.
